Data set [1] has as its system neutrophilic granulocytes, lymphocytes and macrophages. Kind of data set: Preliminary rapid test: immunostimulant effect. In kind it is in vivo, CFLP male mice. Particulars: oral, one-tenth of LD50; 24 hours.
For data set [2], the system named is NK-ly-ascites lymphoma. Put plainly: NK-ly-ascites lymphoma in vivo. The arrangement: species or system CFLP male mice. Conditions: concentration below one-tenth of the LD50 value.
Data set [3] can be described thus: 24 hours' acute toxicity. Conditions: p.o.
Data set [4] relates to Lewis long tumor. Put plainly: Lewis long tumor, lung metastases. Particulars: mouse, in vivo.

Each structure is given as a SMILES string.

Data on one compound can be found in patent US4710578A, “Isothiuronium salts” (Peremartoni Vegyipari Vallalat, priority 1984, dated 1987).

The LD50 is the dose at which mortality reaches 50%. A low value points to a more toxic substance.

For `N=C(N)NC(=N)SCCBr`, the Immunostimulant effect entry in data set [1] is reported as “weak”. The “Activity against NK-ly-ascites tumor” value in data set [2] was “active agains Nk-ly-ascites tumor in a concentration below one-tenth of the LD50 value”. In data set [3], this compound yielded an LD50 of 1050 ± 280 mg/kg. Further, the “Effective dose in Lewis long tumor relative to LD50” value in data set [4] is reported as “effective in a dose lower than one-tenth of the LD50 value”.
